Laboratory results taken from patent US9309314B2, “Polypeptides, nucleic acids and uses thereof” (AGENCY FOR SCIENCE, TECHNOLOGY AND RESEARCH (A*STAR), priority 2013, dated 2016).
Entries after “also recorded” stand apart in the source; their conditions may differ.

Test system: hESCs
Assay: hESC growth assays (cell counts, colony size, xCELLigence real time cell index)
Format: cell-based, human
Experimental: Feeder-free hESCs were cultured in clumps in mTSER1 (Stem Cell Technologies) on Matrigel (BD 354277).
hESCs were dissociated into single cells using Accutase (Stem Cell Technologies) and plated in the presence of 10 μM Y-27632 (ROCK inhibitor) for 12 hours (Watanabe et al., 2007).
For xCELLigence real time growth assays, 4000 cells were plated per well of an E-plate (ACEA Biosciences) with media changes every 48 hours.
Recombinant ELA was added at 2.5 uM (or 10 μg/ml). Cell cycle studies were performed with Click-iT EDU staining kit (Invitrogen) and by performing a double thymidine block (2.5 mM thymidine; 16 hour block, 8 hour release, 16 hour block) followed by DAPI staining for DNA content at the indicated times following release.

QRPVNLTMRRKLRKHNCLQRRCMPLHSRVPFP (listed as Homo sapiens) [ELA, synthetically produced recombinant mature human ELABELA, a 32 amino-acid peptide hormone]
growth of hESCs by real-time cell index analysis (FIG. 3E, FIG. 11A, exogenous peptide): increased growth; also recorded: Dose-dependent response
growth of hESCs relative to untreated cells (hESCs pulsed with peptide, documented by cell counts, colony size and real-time cell indices): dose-dependent enhanced growth
